Biological target: GSK-3β (Homo sapiens, UniProt P49841)
Test: Assay for GSK-3β inhibiting activity (32P-ATP, phospho-CREB peptide substrate, filter paper, CPM)
Conditions: 100 nM GSK-3β protein, 100 μM phospho-CREB peptide, 100 μM ATP, 30° C. for 1 hour

Sequences of proteins named here, by UniProt entry; tags and fusion partners are left off.
UniProt P49841, whole entry: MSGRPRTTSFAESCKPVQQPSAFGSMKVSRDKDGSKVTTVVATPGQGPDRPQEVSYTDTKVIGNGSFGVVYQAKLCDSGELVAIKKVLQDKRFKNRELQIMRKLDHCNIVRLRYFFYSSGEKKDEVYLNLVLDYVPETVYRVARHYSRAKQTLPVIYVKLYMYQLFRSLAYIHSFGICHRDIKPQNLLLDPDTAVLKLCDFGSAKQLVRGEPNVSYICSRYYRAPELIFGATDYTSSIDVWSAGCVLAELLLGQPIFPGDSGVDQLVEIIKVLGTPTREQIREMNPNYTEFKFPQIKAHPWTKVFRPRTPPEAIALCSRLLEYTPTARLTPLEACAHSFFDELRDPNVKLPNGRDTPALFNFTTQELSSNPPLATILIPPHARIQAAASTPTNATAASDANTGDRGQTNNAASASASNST

Structure (SMILES): NC(=O)c1ccc(O)c2[nH]c(-c3ccc(Cl)cc3Cl)nc12
- IC50: > 5000 nM

Structure (SMILES): O=C(Nc1ccccc1)c1ccc(O)c2[nH]c(-c3ccccc3)nc12
- IC50: > 1000 nM

Structure (SMILES): O=C(Nc1ccc(O)cc1)c1ccc(O)c2[nH]c(-c3ccccc3)nc12
- IC50: > 1000 nM

Structure (SMILES): O=C(Nc1ccc(CCO)cc1)c1ccc(O)c2[nH]c(-c3ccccc3)nc12
- IC50: > 1000 nM

Structure (SMILES): O=C(c1ccc(O)c2[nH]c(-c3ccc(Cl)cc3)nc12)N1CCCCC1
- IC50: > 5000 nM

Source: patent publication US7179832B2, “Glycogen synthase kinase 3β inhibitor, composition and process for the preparation thereof” (Crystalgenomics, Inc., priority 2003, dated 2007)
